Reference: PubChem BioAssay (NCI)
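Cells were grown in 96-well plates and exposed to each compound for 48 hours at five concentrations; endpoints were interpolated linearly between bracketing concentrations, or set to the highest concentration if not reached. GI50 = concentration required for 50% inhibition of growth. TGI: total growth inhibition.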

What was measured:
Assay in all cases: NCI tumour cell line growth inhibition, 48 h
786-0 renal = tested on: 786-0 renal
A498 renal = tested on: A498 renal
A549 NSCLC = tested on: A549 NSCLC
ACHN renal = tested on: ACHN renal
BT-549 breast = tested on: BT-549 breast
CAKI-1 renal = tested on: CAKI-1 renal
CCRF-CEM leukemia = tested on: CCRF-CEM leukemia
COLO 205 colon = tested on: COLO 205 colon
DU-145 prostate = tested on: DU-145 prostate
HCC-2998 colon = tested on: HCC-2998 colon
HCT-116 colon = tested on: HCT-116 colon
HCT-15 colon = tested on: HCT-15 colon
HOP-62 NSCLC = tested on: HOP-62 NSCLC
HOP-92 NSCLC = tested on: HOP-92 NSCLC
HS 578T breast = tested on: HS 578T breast
HT29 colon = tested on: HT29 colon
IGROV1 ovarian = tested on: IGROV1 ovarian
K-562 leukemia = tested on: K-562 leukemia
KM12 colon = tested on: KM12 colon
LOX IMVI melanoma = tested on: LOX IMVI melanoma
M14 melanoma = tested on: M14 melanoma
MALME-3M melanoma = tested on: MALME-3M melanoma
MCF7 breast = tested on: MCF7 breast
MDA-MB-231 breast = tested on: MDA-MB-231 breast
MDA-MB-435 = tested on: MDA-MB-435
MOLT-4 leukemia = tested on: MOLT-4 leukemia
NCI-H226 lung = tested on: NCI-H226 lung
NCI-H23 lung = tested on: NCI-H23 lung
NCI-H322M lung = tested on: NCI-H322M lung
NCI-H460 lung = tested on: NCI-H460 lung
NCI-H522 lung = tested on: NCI-H522 lung
NCI/ADR-RES ovarian = tested on: NCI/ADR-RES ovarian
OVCAR-3 ovarian = tested on: OVCAR-3 ovarian
OVCAR-4 ovarian = tested on: OVCAR-4 ovarian
OVCAR-5 ovarian = tested on: OVCAR-5 ovarian
OVCAR-8 ovarian = tested on: OVCAR-8 ovarian
PC-3 prostate = tested on: PC-3 prostate
RPMI-8226 leukemia = tested on: RPMI-8226 leukemia
RXF 393 renal = tested on: RXF 393 renal
SF-268 CNS = tested on: SF-268 CNS
SF-295 CNS = tested on: SF-295 CNS
SF-539 CNS = tested on: SF-539 CNS
SK-MEL-2 melanoma = tested on: SK-MEL-2 melanoma
SK-MEL-28 melanoma = tested on: SK-MEL-28 melanoma
SK-MEL-5 melanoma = tested on: SK-MEL-5 melanoma
SK-OV-3 ovarian = tested on: SK-OV-3 ovarian
SN12C renal = tested on: SN12C renal
SNB-19 CNS = tested on: SNB-19 CNS
SNB-75 CNS = tested on: SNB-75 CNS
SR leukemia = tested on: SR leukemia
SW-620 colon = tested on: SW-620 colon
T-47D breast = tested on: T-47D breast
TK-10 renal = tested on: TK-10 renal
U251 CNS = tested on: U251 CNS
UACC-257 melanoma = tested on: UACC-257 melanoma
UACC-62 melanoma = tested on: UACC-62 melanoma
UO-31 renal = tested on: UO-31 renal

Molecule NCCc1ccc(N(CCCl)CCCl)cc1 has a GI50 (786-0 renal) of 3.51 µM, a TGI (786-0 renal) of 13.7 µM and a GI50 (A498 renal) of 3.54 µM. It also gave a TGI (A498 renal) of 18.9 µM, a GI50 (A549 NSCLC) of 9.91 µM and a TGI (A549 NSCLC) of 75.3 µM. The GI50 (ACHN renal) was 0.694 µM, the TGI (ACHN renal) was 6.05 µM and the GI50 (BT-549 breast) was 13.5 µM. It also gave a TGI (BT-549 breast) of 48.2 µM, a GI50 (CAKI-1 renal) of 0.736 µM and a TGI (CAKI-1 renal) of 18.9 µM. For the same molecule, the GI50 (CCRF-CEM leukemia) was 1.01 µM, the TGI (CCRF-CEM leukemia) was > 100 µM and the GI50 (COLO 205 colon) was 12 µM. For the same molecule, the TGI (COLO 205 colon) was 31.6 µM, the GI50 (DU-145 prostate) was 2.9 µM and the TGI (DU-145 prostate) was 24.6 µM. For the same molecule, the GI50 (HCC-2998 colon) was 14.8 µM, the TGI (HCC-2998 colon) was 41.2 µM and the GI50 (HCT-116 colon) was 7.88 µM. The TGI (HCT-116 colon) was > 100 µM, the GI50 (HCT-15 colon) was 5.85 µM and the TGI (HCT-15 colon) was 91.7 µM. The GI50 (HOP-62 NSCLC) was 16.7 µM, the TGI (HOP-62 NSCLC) was > 100 µM and the GI50 (HOP-92 NSCLC) was 2.15 µM. It also gave a TGI (HOP-92 NSCLC) of 25.5 µM, a GI50 (HS 578T breast) of 22.3 µM and a TGI (HS 578T breast) of 70.2 µM. The GI50 (HT29 colon) was 9.01 µM, the TGI (HT29 colon) was 54.6 µM and the GI50 (IGROV1 ovarian) was 2.59 µM. For the same molecule, the TGI (IGROV1 ovarian) was 37.5 µM, the GI50 (K-562 leukemia) was 5.5 µM and the TGI (K-562 leukemia) was > 100 µM. For the same molecule, the GI50 (KM12 colon) was 14.5 µM, the TGI (KM12 colon) was 42 µM and the GI50 (LOX IMVI melanoma) was 2.06 µM. For the same molecule, the TGI (LOX IMVI melanoma) was 40.6 µM, the GI50 (M14 melanoma) was 7.46 µM and the TGI (M14 melanoma) was 99.1 µM. For the same molecule, the GI50 (MALME-3M melanoma) was 3.24 µM, the TGI (MALME-3M melanoma) was 12.9 µM and the GI50 (MCF7 breast) was 0.7 µM. It also gave a TGI (MCF7 breast) of 26.6 µM, a GI50 (MDA-MB-231 breast) of 19.5 µM and a TGI (MDA-MB-231 breast) of 70.4 µM. For the same molecule, the GI50 (MDA-MB-435) was 10.4 µM, the TGI (MDA-MB-435) was 24.1 µM and the GI50 (MOLT-4 leukemia) was 1.39 µM. For the same molecule, the TGI (MOLT-4 leukemia) was > 100 µM, the GI50 (NCI-H226 lung) was 16.5 µM and the TGI (NCI-H226 lung) was 71.5 µM. For the same molecule, the GI50 (NCI-H23 lung) was 4.91 µM, the TGI (NCI-H23 lung) was 48.9 µM and the GI50 (NCI-H322M lung) was 18 µM. The TGI (NCI-H322M lung) was 60.2 µM, the GI50 (NCI-H460 lung) was 0.647 µM and the TGI (NCI-H460 lung) was 30.4 µM. For the same molecule, the GI50 (NCI-H522 lung) was 1.56 µM, the TGI (NCI-H522 lung) was 3.75 µM and the GI50 (NCI/ADR-RES ovarian) was 5.01 µM. For the same molecule, the TGI (NCI/ADR-RES ovarian) was > 100 µM, the GI50 (OVCAR-3 ovarian) was 5.25 µM and the TGI (OVCAR-3 ovarian) was 29.1 µM. For the same molecule, the GI50 (OVCAR-4 ovarian) was 11.1 µM, the TGI (OVCAR-4 ovarian) was 50.3 µM and the GI50 (OVCAR-5 ovarian) was 3.84 µM. For the same molecule, the TGI (OVCAR-5 ovarian) was 24.6 µM, the GI50 (OVCAR-8 ovarian) was 4.46 µM and the TGI (OVCAR-8 ovarian) was 45.1 µM. For the same molecule, the GI50 (PC-3 prostate) was 11.5 µM, the TGI (PC-3 prostate) was 67.1 µM and the GI50 (RPMI-8226 leukemia) was 3.23 µM. It also gave a TGI (RPMI-8226 leukemia) of 35.2 µM, a GI50 (RXF 393 renal) of 1.99 µM and a TGI (RXF 393 renal) of 5.76 µM. For the same molecule, the GI50 (SF-268 CNS) was 1.95 µM, the TGI (SF-268 CNS) was 33.1 µM and the GI50 (SF-295 CNS) was 3.41 µM. For the same molecule, the TGI (SF-295 CNS) was > 100 µM, the GI50 (SF-539 CNS) was 2.24 µM and the TGI (SF-539 CNS) was 10.1 µM. It also gave a GI50 (SK-MEL-2 melanoma) of 4.29 µM, a TGI (SK-MEL-2 melanoma) of 20.6 µM and a GI50 (SK-MEL-28 melanoma) of 15.9 µM. For the same molecule, the TGI (SK-MEL-28 melanoma) was 64.8 µM, the GI50 (SK-MEL-5 melanoma) was 12.9 µM and the TGI (SK-MEL-5 melanoma) was 60.4 µM. The GI50 (SK-OV-3 ovarian) was 10.8 µM, the TGI (SK-OV-3 ovarian) was > 100 µM and the GI50 (SN12C renal) was 2.23 µM. For the same molecule, the TGI (SN12C renal) was 77.7 µM, the GI50 (SNB-19 CNS) was 8.78 µM and the TGI (SNB-19 CNS) was > 100 µM. The GI50 (SNB-75 CNS) was 2.98 µM, the TGI (SNB-75 CNS) was 22.3 µM and the GI50 (SR leukemia) was 0.541 µM. For the same molecule, the TGI (SR leukemia) was > 100 µM, the GI50 (SW-620 colon) was 6.34 µM and the TGI (SW-620 colon) was > 100 µM. For the same molecule, the GI50 (T-47D breast) was 6.17 µM, the TGI (T-47D breast) was > 100 µM and the GI50 (TK-10 renal) was 11.5 µM. The TGI (TK-10 renal) was 41.6 µM, the GI50 (U251 CNS) was 2.36 µM and the TGI (U251 CNS) was 43.8 µM. It also gave a GI50 (UACC-257 melanoma) of 15.4 µM, a TGI (UACC-257 melanoma) of 57.2 µM and a GI50 (UACC-62 melanoma) of 4.17 µM. It also gave a TGI (UACC-62 melanoma) of 20.4 µM, a GI50 (UO-31 renal) of 2.29 µM and a TGI (UO-31 renal) of 9.41 µM.
